Measured values as given in ChEMBL document CHEMBL6092202, “4-Anilinoquinazoline Derivatives as the First Potent NOD1-RIPK2 Signaling Pathway Inhibitors at the Nanomolar Range” (J Med Chem, 2024).

Target: T1, Nucleotide-binding oligomerization domain-containing protein 1 (Homo sapiens, UniProt Q9Y239)
T1 sequence (Q9Y239 whole entry): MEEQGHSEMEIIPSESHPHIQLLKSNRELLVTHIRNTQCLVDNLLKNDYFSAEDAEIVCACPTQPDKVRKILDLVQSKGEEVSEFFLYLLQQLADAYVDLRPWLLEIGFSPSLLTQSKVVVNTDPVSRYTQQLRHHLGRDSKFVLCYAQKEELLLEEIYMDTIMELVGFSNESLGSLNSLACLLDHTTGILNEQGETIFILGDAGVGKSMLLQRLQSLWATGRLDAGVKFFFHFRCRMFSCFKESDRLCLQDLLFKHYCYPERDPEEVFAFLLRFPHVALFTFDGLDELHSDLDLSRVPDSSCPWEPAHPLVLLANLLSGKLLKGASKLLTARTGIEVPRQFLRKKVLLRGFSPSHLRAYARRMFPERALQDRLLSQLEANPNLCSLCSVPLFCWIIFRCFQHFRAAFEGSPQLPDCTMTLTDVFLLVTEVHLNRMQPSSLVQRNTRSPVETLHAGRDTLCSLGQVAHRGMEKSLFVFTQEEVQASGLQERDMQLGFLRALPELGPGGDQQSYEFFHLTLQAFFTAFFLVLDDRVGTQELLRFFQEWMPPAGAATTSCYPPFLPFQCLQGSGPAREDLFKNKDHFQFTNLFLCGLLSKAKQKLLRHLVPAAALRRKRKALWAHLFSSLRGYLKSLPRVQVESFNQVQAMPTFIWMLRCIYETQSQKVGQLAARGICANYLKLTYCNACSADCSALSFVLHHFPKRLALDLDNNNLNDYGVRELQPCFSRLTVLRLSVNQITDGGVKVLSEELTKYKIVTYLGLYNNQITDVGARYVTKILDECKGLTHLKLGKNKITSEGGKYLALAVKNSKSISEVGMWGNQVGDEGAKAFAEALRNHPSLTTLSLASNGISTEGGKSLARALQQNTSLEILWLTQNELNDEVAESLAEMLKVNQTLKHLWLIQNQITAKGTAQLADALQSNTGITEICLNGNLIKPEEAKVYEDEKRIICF
Assay: Inhibition of human NOD1 expressed in HEK-Blue hNOD1 cells coexpressing NF-kappaB-inducible SEAP reporter gene assessed as inhibition of NF-kappaB transcriptional activity by measuring decrease in SEAP activity preincubated for 30 mins followed by C12-iE-DAP addition and measured after 18 hrs by absorbance based spectrophotometric analysis
Assay type: cell-based

IC50 [nM] | SMILES
1830 | Cc1ccc(S(=O)(=O)n2c(N)nc3ccccc32)cc1
81 | COc1cc2ncnc(Nc3ccc(F)c(O)c3)c2cc1OC
